Measured values published in patent publication EP3666770A1, “NOVEL HETEROCYCLIC COMPOUNDS AS CDK8/19 INHIBITORS” (Joint Stock Company "Biocad", priority 2017, dated 2019).

Columns and labels:
[1] = Chemical stability in human blood plasma; format: in vitro ADME; settings: pooled human blood plasma; 10 µM; 4 hours at 37°C; substance amount in % after thermostatting
Protocol: Chemical stability of the compounds described herein was determined in simulated gastric fluid and human blood plasma.
Determination of stability in human blood plasma was performed using pooled human blood plasma taken from ten healthy donors. The initial candidate solution (10 mM in DMSO) was diluted with pooled blood plasma to a concentration of […] (test solution). The test solution was incubated in a dry block thermostat for 4 hours at 37°C. HPLC with Agilent 1200 liquid chromatography system (Agilent, USA) was employed to determine peak areas of the compounds in test samples, said peak areas corresponding to the initial test time (prior to incubation) and the final test time (after incubation in a dry block thermostat for 4 hours at 37°C), proteins were preliminarily precipitated with acetonitrile. Chromatographic analysis was performed in a gradient elution regime with a flow rate of 1 mL/min. Substance amount in % in a sample after thermostatting was determined.

[2] = Enzyme stability in human liver S9 fractions; format: in vitro ADME; settings: 0,5 mg/mL pooled human liver S9 fractions; 10 µM compound; 37°C; pH=7,4
Protocol: Measuring of candidates' enzyme stability enabled estimation of the stability of the present compounds towards the action of enzymes in human liver S9 fractions.
Enzyme degradation rate was measured by incubating the reaction mixture in a dry block thermostat at 37°C, said reaction mixture comprising 0,5 mg/mL of pooled human liver S9 fractions (XenoTech, USA, cat#H0610), 10 µM compound, 2 mM β-nicotinamide adenine dinucleotide (Carbosynth, UK, cat#NN10871) and 4 mM magnesium chloride in 0,1 M sodium-phosphate buffer, pH=7,4. The reaction was quenched with acetonitrile (100 µL of acetonitrile / 100 µL of the reaction mixture). After quenching, the samples were centrifuged at 10000 rpm for 10 minutes. Supernatant fluid was tested by chromatographic technique using Agilent1200 (Agilent, USA). Chromatographic analysis was performed in a gradient elution regime with a flow rate of 1 mL/min. A graph of the logarithm of substance's peak area as a function of time was made.

Caco-2 cell monolayer = assay: Permeability through Caco-2 cell monolayer; format: in vitro ADME; settings: efflux = Papp B-A / Papp A-B
Protocol: Estimation of permeability through Caco-2 cell monolayer enables assessment of the ability of the substances to penetrate through biological membranes by means of both active and passive transport.
Intestinal epithelial cells Caco-2 were grown on filter inserts (pore size 0.4 µm, BD Falcon with High Density) for 21 days; monolayer integrity was then checked using Lucifer Yellow (Sigma-Aldrich, USA) according to the standard protocol. In A->B transfer ("intestinal lumen" - "blood stream" transfer), solutions of the test substances in buffer, pH 6.5 (HBSS, 10 mM HEPES, 15 mM glucose) at a concentration of 10 µM were added to the upper chamber; whereas the lower chamber was filled with buffer, pH 7.4 (HBSS, 10 mM HEPES, 15 mM Glucose, 1% BSA). […]
After 2 hours incubation at 37 ° C under an atmosphere containing 5% CO2, the amounts of the test substances in the upper and lower chambers were measured by HPLC using an Agilent1200 HPLC system (Agilent, USA), proteins were preliminarily precipitated with acetonitrile. […] The peak areas corresponding to the compounds were detected on chromatograms.
The value was calculated using the formula: efflux = Papp B−A /Papp A−B , [formula] where • Papp A-E - the value of permeability direct analysis A→ B; • Papp B-A - the value of the permeability of the reverse analysis B→ A.

HepG2 cells = assay: General cytotoxicity test on HepG2 cells; format: cell-based; settings: 72 h incubation; 200 to 0.78 µM; average values of several tests; read-out: Hep-G2 CC50, mkM
Protocol: Cell viability was assessed using the above method. Table 6. […] The results are presented as average values of activity obtained in several tests.

For Cn1cc(-c2ccc(-c3cncc4ncc(C(=O)NC5CC5)cc34)cc2)cn1 [CDK8-3-37], the “Stability in blood plasma, %” value [1] was 100%, the “Stability in S9, Clint” value [2] was 10.05 µL/min/mg and the efflux (Caco-2 cell monolayer) was 1.0. It also gave a CC50 (HepG2 cells) of 98.2 µM.

Molecule Cn1cc(-c2ccc(-c3cncc4ncc(C(=O)NCC5CC5)cc34)cc2)cn1 [CDK8-3-39] has an efflux (Caco-2 cell monolayer) of 0.8 and a CC50 (HepG2 cells) of 50.2 µM.
